Measurements reported in ChEMBL document CHEMBL6182910, “Design, Synthesis, and Biological Evaluation of 4-(Difluoromethyl)-1H-imidazole-5-carboxylic Acids/4-(3-Cyanophenoxy)pyrimidine-5-carboxylic Acids as P2Y1 Receptor Antagonists for Ischemic Stroke Treatment” (J Med Chem, 2025).

Assays:
Oryctolagus cuniculus [1] = species: Oryctolagus cuniculus; assay: Potency index, ratio of BPTU IC50 to test compound IC50 for antagonist activity at P2Y1 receptor in platelet-rich plasma of male Japanese white rabbit assessed as inhibition of ADP-induced cytosolic Ca2+ level pretreated for 5 mins followed by ADP addition by FLUO-4 AM dye based analysis; format: cell-free; conditions: filed as antagonist
Oryctolagus cuniculus [2] = species: Oryctolagus cuniculus; assay: Potency index, ratio of HNW001 IC50 to test compound IC50 for antagonist activity at P2Y1 receptor in platelet-rich plasma of male Japanese white rabbit assessed as inhibition of ADP-induced cytosolic Ca2+ level pretreated for 5 mins followed by ADP addition by FLUO-4 AM dye based analysis; format: cell-free; conditions: filed as antagonist

Structure (SMILES)	Ratio IC50 (Oryctolagus cuniculus [1])	Ratio IC50 (Oryctolagus cuniculus [2])
N#Cc1cccc(Oc2nc(-c3cccc(C#N)c3)ncc2C(=O)O)c1	5.1	5.1
N#Cc1cccc(-c2nc(C(F)F)c(C(=O)O)n2OCc2csc(N)n2)c1	5.1	5.1
